PubChem BioAssay AID1188 (EPA DSSTox, 2008)

Tested on: Fathead minnow (Pimephales promelas) acute toxicity, lethality
Test: DSSTox (EPAFHM) EPA Fathead Minnow Acute Toxicity

O=[N+]([O-])c1ccc([N+](=O)[O-])cc1
Potency: 4.22 µM

O=[N+]([O-])c1ccc([N+](=O)[O-])c(O)c1
Potency: 18.2 µM

Cc1cc([N+](=O)[O-])cc([N+](=O)[O-])c1O
Potency: 8.73 µM
